Values of other authors, collected in patent US8048872B2, “Treatment of hyperproliferative diseases with vinca alkaloid N-oxide and analogs” (Stat of Oregon Acting by and Through The Oregon State Board …, priority 2006, dated 2011).

Conditions: cited from earlier work

## Interferon alfa-2a
Grade III-IV
  Cardiac Toxicity: Cardiac Toxicity 5%
  Fever: Fever 5%
  Neurologic Toxicity: Neurologic Toxicity 3%
  Pulmonary Symptoms: 3%
  Weight Loss: Weight Loss 6%
Grade III
  Altered Mood: (Grade III) 3%
  Gastrointestinal: (Grade III) 13%
  Leukopenia: Grade III 7%
  Neutropenia: Grade III 3%
Grade not given
  Leukopenia: Leukopenia 0.7%

## Interleukin-2
Grade III-IV
  Acidosis: Acidosis 6%
  Anemia Grade III-IV: 18%
  Asthenia: Asthenia 4%
  Cardiac Toxicity: Cardiac Toxicity 9%
  Diarrhea: Diarrhea 22%
  Dyspnea: Dyspnea 17%
  Elevated BUN/Creatinine: Creatinine 14%
  Fever and/or Chills: Fever and/or Chills 24%
  Gastrointestinal Bleeding: Bleeding 4%
  Hyperbilirubinemia: Hyperbilirubinemia 21%
  Hypotension: Hypotension 74%
  Increased AST/ALT: Increased AST/ALT 10%
  Increased Alkaline Phosphatase: Phosphatase 8%
  Mental Status Changes: Changes 28%
  Nausea/Vomiting: Nausea/Vomiting 25%
  Oliguria/Anuria: Oliguria/Anuria 46%
  Pruritus: Pruritus 4%
  Sepsis: Sepsis 6%
  Stomatitis: Stomatitis 4%
  Thrombocytopenia: Thrombocytopenia 21%
Grade not given
  Leukopenia/Neutropenia Toxicity: None reported

Read-outs that look alike come from different tables or passages of the source.
